The record followed here is US10125100B2, “Kinase inhibitors” (Respivert Limited, priority 2014, dated 2018).

This data set is described as follows: Hydrolytic stability study. As to conditions: DMSO/water (3:1), 1 mg/mL, 60° C., 307 min. Type of data set: physicochemical. How it is done:
Chemical stability of compounds of the invention was assessed in a mixture of DMSO and water (3:1) at a test compound concentration of 1 mg/mL.
General HPLC Procedure • Agilent, Waters X-Select C18, 2.5 μm, 4.6×30 mm column, 4 min method, 5-95% MeCN/water (0.1% formic acid). Flow rate 2.5 mL/min. Column Oven Temperature 40° C. Detection 254 nm.
Sample Preparation • A 1.0 mg sample of test compound was dissolved in 750 μL of DMSO. Water (250 μL) was added slowly, ensuring no precipitation occurred.
Recording Stability • A 50 μL aliquot of the test solution was removed and analysed in duplicate by 5 μL HPLC injections. The peak area for the test compound was recorded following manual integration of the corresponding UV trace. • The test solution was heated to 60° C., with stirring, and 50 μL aliquots removed for HPLC analysis at 5 and 24 h timepoints.

Regarding `COc1cc(Nc2cc(Oc3ccc(NC(=O)Nc4cc(C(C)(C)C)cc(NS(C)(=O)=O)c4OC)c4ccccc34)ccn2)ccc1P(C)(=O)O` [Example 44, (4-((4-((4-(3-(5-(tert-Butyl)-2-methoxy-3-(methylsulfonamido)phenyl)ureido)naphthalen-1-yl)oxy)pyridin-2-yl)amino)-2-methoxyphenyl)(methyl)phosphinic acid], the “% Parent Remaining” value worked out at 102%.
